Consider one compound from PubChem BioAssay AID588538 (Sanford-Burnham Center for Chemical Genomics, 2011).

Each structure is given as a SMILES string. The list shows a part of the results, in another mix than the full data. Calls of active or inactive are those of the source. The rule behind the calls is not given here.

The nature of the test: fluorescence interference of Apaf-1 inhibitor hits, dose response, artefact control for Apaf-1 inhibitor project (AID 588538). Conditions: fluorescence interference counterscreen, Apaf-1 assay format. (A counterscreen serves to expose hits that act by an unwanted route or on another target.)

Take `CC1=C2N=C(C=C3N=C(C(C)=C4[N-][C@@](C)([C@@H]5N=C1[C@](C)(CCC(=O)NC[C@@H](C)OP(=O)([O-])O[C@H]1[C@@H](O)[C@@H](n6cnc7cc(C)c(C)cc76)O[C@@H]1CO)[C@H]5CC(N)=O)[C@@](C)(CC(N)=O)[C@@H]4CCC(N)=O)[C@@](C)(CC(N)=O)[C@@H]3CCC(N)=O)C(C)(C)[C@@H]2CCC(N)=O.[C-]#N.[Co+3]`: the IC50 was inactive: > 100 µM.

In general, IC50 refers to the concentration needed to halve the response being measured.
